Active and inactive are the calls of the source.
Experiments:
[1] = tested on: U-87 MG; assay: Antitumor activity against human U-87 MG cells implanted in nude mouse assessed as reduction in tumor volume increase at 75 mg/kg/day, po administered 5 times a week for 4 weeks; format: functional, organism-based; conditions: U-87MG ATCC
[2] = tested on: HUVEC; assay: Anti-angiogenesis activity in HUVEC assessed as reduction in cell adhesion; format: functional, cell-based; conditions: Homo sapiens
[3] = tested on: U-87 MG; assay: Antitumor activity against human U-87 MG cells implanted in nude mouse assessed as reduction in MMP-9 expression at 50 to 75 mg/kg/day, po administered 5 times a week for 4 weeks by IHC analysis; format: functional, organism-based; conditions: U-87MG ATCC, dose 50-75 mg/kg/day
[4] = tested on: U-87 MG; assay: Antitumor activity against human U-87 MG cells implanted in nude mouse assessed as reduction in MMP-2 expression at 50 to 75 mg/kg/day, po administered 5 times a week for 4 weeks by IHC analysis; format: functional, organism-based; conditions: U-87MG ATCC, dose 50-75 mg/kg/day
[5] = tested on: U-87 MG; assay: Antitumor activity in human U-87 MG cells assessed as reduction in MMP-2 expression by Western blot analysis; format: functional, cell-based; conditions: U-87MG ATCC, dose 0.3-5 µM
[6] = tested on: U-87 MG; assay: Antimigratory activity against human U-87 MG cells assessed as reduction in rate of cell migration at 0.1 to 5 uM incubated for 24 hrs by scratch wound healing assay; format: functional, cell-based; conditions: U-87MG ATCC, dose 0.1-5 µM
[7] = tested on: U-87 MG; assay: Antitumor activity in human U-87 MG cells assessed as reduction in MMP-9 expression by Western blot analysis; format: functional, cell-based; conditions: U-87MG ATCC, dose 0.3-5 µM
[8] = tested on: U-87 MG; assay: Antimigratory activity against human U-87 MG cells assessed as reduction in rate of cell migration at 5 uM incubated for 24 hrs by scratch wound healing assay; format: functional, cell-based; conditions: U-87MG ATCC

Measured: Activity

CNC(=O)c1ccsc1Nc1nc(Nc2ccc(N3CCC(N4CCOCC4)CC3)cc2)ncc1C(F)(F)F
active: [1] | [2] Dose-Dependent Effect | [3] | [4] | [5] Dose-Dependent Effect | [6] | [7] Dose-Dependent Effect | [8]

From ChEMBL document CHEMBL5634095, “Design, synthesis and evaluation of novel pyrimidinylaminothiophene derivatives as FGFR1 inhibitors against human glioblastoma multiforme” (Eur J Med Chem, 2023)
